Results published in PubChem BioAssay AID2599 (Sanford-Burnham Center for Chemical Genomics, 2010).
The list shows a part of the results, in another mix than the full data. Calls of active or inactive are those of the source.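 How the source made its calls: active means inhibition above about 50% at the single tested dose (limit read from the data); inactive means the rest.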

The chains behind the UniProt entries cited, without tags or fusion partners. Where a name states a change or a piece, a line headed by the entry shows the natural chain unless it says otherwise.
UniProt Q9GZR1: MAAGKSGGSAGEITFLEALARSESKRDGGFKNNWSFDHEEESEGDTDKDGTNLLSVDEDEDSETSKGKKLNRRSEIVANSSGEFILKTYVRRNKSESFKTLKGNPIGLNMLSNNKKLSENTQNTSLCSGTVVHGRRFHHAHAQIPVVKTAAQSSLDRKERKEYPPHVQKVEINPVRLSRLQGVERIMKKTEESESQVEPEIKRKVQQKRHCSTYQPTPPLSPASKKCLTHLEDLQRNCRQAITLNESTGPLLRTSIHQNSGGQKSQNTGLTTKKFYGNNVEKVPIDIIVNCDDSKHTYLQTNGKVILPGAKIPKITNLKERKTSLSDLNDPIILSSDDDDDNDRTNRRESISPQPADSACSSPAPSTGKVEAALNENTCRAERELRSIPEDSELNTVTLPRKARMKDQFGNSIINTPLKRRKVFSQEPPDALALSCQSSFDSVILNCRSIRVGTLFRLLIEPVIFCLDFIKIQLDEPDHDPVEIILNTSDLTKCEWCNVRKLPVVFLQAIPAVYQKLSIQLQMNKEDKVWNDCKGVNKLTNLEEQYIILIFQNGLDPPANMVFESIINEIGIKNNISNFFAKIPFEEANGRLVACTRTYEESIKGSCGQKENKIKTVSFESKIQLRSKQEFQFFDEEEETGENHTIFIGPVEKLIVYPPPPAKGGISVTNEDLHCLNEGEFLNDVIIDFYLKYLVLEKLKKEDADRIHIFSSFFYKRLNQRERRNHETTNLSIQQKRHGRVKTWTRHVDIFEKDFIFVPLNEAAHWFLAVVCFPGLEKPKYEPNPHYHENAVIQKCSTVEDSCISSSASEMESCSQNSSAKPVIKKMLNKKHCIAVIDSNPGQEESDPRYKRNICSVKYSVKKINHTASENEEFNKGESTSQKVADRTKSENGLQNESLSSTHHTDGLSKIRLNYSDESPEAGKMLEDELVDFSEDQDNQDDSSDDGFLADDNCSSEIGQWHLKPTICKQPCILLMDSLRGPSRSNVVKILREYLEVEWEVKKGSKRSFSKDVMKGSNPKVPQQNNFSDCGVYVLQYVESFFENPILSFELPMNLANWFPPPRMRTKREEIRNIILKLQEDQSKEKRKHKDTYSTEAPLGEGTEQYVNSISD

molecular target: Sentrin-specific protease 6 (Homo sapiens) (UniProt Q9GZR1); experiment: SENP6 protease inhibitors, primary screen, biochemical, luminescence, uHTS (AID 2599); settings: Recombinant SENP6 catalytic domain, aminoluciferin luminescence; at 10 µM; hits give high values;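 further: plate controls were DMSO wells with enzyme for no effect and DMSO wells lacking enzyme for full effect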

SMILES	inhibition
Cc1ccc(OP(=O)(Nc2ccccn2)Oc2ccc(C)cc2)cc1	inactive: -17.5%
COC(=O)c1cc2c(s1)N=C(c1ccccc1)N(C)P2(=O)N1CCOCC1 (centres undefined)	inactive: -6.53%
CCC(=O)N1C2C3N(C(=O)CC)C1C1N(C(=O)CC)C(C(N1C(=O)CC)N3C(=O)CC)N2C(=O)CC	inactive: -20.9%
O=C(OC1CN2CCC1CC2)c1ccccc1 (centres undefined)	inactive: -8.43%
CN(C)C(=O)Oc1noc2ccccc12	inactive: -1.52%
CC(NC(=O)COC(=O)C(O)(c1ccccc1)c1ccccc1)c1ccccc1 (centres undefined)	inactive: -6.3%
Cc1ccccc1OP(=O)(Nc1ccccn1)Oc1ccccc1C	inactive: -14.9%
CC(=O)Nc1ccc([As](=O)(O)O)cc1	inactive: -30.4%
O=C(O)c1ccccc1[As](=O)(O)O	inactive: -17.1%
O=P(Nc1nc2ccc(Cl)cc2s1)(c1ccccc1)c1ccccc1	inactive: -30.3%
Cc1ccc(NP(=O)(Oc2ccccc2F)Oc2ccccc2F)nc1	inactive: -10.5%
CN(C(=O)Cc1ccc(Cl)c(Cl)c1)[C@H]1CCCC[C@@H]1N1CCCC1	inactive: 3.56%
Cc1cc(SC(NC(=O)c2ccc(F)cc2)C(Cl)(Cl)Cl)ncn1 (centres undefined)	inactive: -13.4%
CCOP(=O)(Nc1ccccc1)OCC	inactive: -2.62%
O=[N+]([O-])c1cc([N+](=O)[O-])c(CCN2CCOCC2)c([N+](=O)[O-])c1	inactive: 17.9%
CCN(N=Nc1nonc1N)c1nonc1N	inactive: 9.17%
NC(=O)c1cc([N+](=O)[O-])cc([N+](=O)[O-])c1N	inactive: -5.21%
Cc1ccc(N/C(=N/P(=O)(N2CCOCC2)N2CCOCC2)N2CCOCC2)cc1	inactive: 8.9%
CN(C(=O)Cc1ccc(Cl)c(Cl)c1)[C@H]1CCCC[C@H]1N1CCCC1	inactive: -4.53%
Cc1ccc(OP(=O)(Nc2nccs2)Oc2ccc(C)cc2)cc1	inactive: -16.8%
COc1ccccc1OP(=O)(Nc1ccc(C)cn1)Oc1ccccc1OC	inactive: -1.15%
CN1CCCC(OC(=O)C(c2ccccc2)c2ccccc2)C1 (centres undefined)	inactive: -14%

SMILES	inhibition
Clc1ccc(Cl)c(NC2=NCC(CBr)S2)c1 (centres undefined)	inactive: -7.28%
Nc1cc(N)c2nonc2c1[N+](=O)[O-]	inactive: 24.9%
CC(C)CC(=O)NC(Sc1ccc(Cl)cc1)C(Cl)(Cl)Cl (centres undefined)	inactive: 3.24%
O=C(NC(Sc1ccncn1)C(Cl)(Cl)Cl)c1ccccc1 (centres undefined)	inactive: 3.9%
Cc1c2non([O-])c-2c(C)[n+](=O)[n+]1[O-]	inactive: 3.63%
Oc1ccccc1CNc1ccccn1	inactive: 4.03%
COc1ccc(C2=NCC(CBr)S2)cc1 (centres undefined)	inactive: -2.09%
O=[N+]([O-])c1cccc2n[nH]nc12	inactive: -15%
CC(=O)N1C2C3N(C(C)=O)C1C1N(C(C)=O)C(C(N1C(C)=O)N3C(C)=O)N2C(C)=O	inactive: -20.3%
CCc1nc2c(n1)c1c(non1O)c1c2no[n+]1[O-]	inactive: 7.31%
O=[N+]([O-])c1cc([N+](=O)[O-])c(CCNc2ccccc2)c([N+](=O)[O-])c1	inactive: 9.54%
Cc1ccc(NP(=O)(Oc2ccccc2)Oc2ccccc2)nc1	inactive: 9.37%
C[N+]1=C2C=CC=CC=C2SC12C([N+](=O)[O-])=CC([N+](=O)[O-])=C[C-]2[N+](=O)[O-] (centres undefined)	inactive: -13.1%
Nc1ccc([As](=O)(O)c2ccc(N)cc2)cc1	inactive: 2.7%
CCN(/C(=N/P(=O)(N1CCOCC1)N1CCOCC1)N1CCOCC1)c1ccc(OC)cc1	inactive: -17.5%
CN(C)C(=O)OCCc1n(C)cc[n+]1C	inactive: -7.16%
CC(C)=N/N=C(\N)N[N+](=O)[O-]	inactive: -25.6%
CC1CCN(C(=O)Oc2c(Cl)cc(Cl)c3cccnc23)CC1	inactive: 0.073%
O=C(Nc1cc([As](=O)(O)O)ccc1O)c1ccccc1	inactive: -2.5%
CC(C)(C)C(=O)NC(Sc1ccncn1)C(Cl)(Cl)Cl (centres undefined)	inactive: 8.76%
O=[N+]([O-])c1ncn(CCn2ncnc2[N+](=O)[O-])n1	inactive: 21.4%
O=[N+]([O-])c1cccc(NC2=NCC(CBr)S2)c1 (centres undefined)	inactive: 2.65%
